Test results taken from US9546173B2 (Novartis AG, priority 2012, dated 2017).

By UniProt entry, the sequences of proteins in these tests, tags left out.
UniProt P28482, whole entry: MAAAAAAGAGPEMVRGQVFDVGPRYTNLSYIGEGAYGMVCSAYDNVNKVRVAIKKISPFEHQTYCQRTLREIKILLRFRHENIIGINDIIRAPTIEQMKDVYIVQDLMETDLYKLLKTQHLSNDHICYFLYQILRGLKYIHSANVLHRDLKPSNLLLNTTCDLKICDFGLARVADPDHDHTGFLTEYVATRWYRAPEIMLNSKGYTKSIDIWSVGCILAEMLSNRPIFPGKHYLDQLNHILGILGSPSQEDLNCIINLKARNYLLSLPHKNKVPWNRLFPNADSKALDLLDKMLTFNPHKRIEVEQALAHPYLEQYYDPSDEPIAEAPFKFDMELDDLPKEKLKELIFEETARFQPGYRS
UniProt Q15418, whole entry, species assumed: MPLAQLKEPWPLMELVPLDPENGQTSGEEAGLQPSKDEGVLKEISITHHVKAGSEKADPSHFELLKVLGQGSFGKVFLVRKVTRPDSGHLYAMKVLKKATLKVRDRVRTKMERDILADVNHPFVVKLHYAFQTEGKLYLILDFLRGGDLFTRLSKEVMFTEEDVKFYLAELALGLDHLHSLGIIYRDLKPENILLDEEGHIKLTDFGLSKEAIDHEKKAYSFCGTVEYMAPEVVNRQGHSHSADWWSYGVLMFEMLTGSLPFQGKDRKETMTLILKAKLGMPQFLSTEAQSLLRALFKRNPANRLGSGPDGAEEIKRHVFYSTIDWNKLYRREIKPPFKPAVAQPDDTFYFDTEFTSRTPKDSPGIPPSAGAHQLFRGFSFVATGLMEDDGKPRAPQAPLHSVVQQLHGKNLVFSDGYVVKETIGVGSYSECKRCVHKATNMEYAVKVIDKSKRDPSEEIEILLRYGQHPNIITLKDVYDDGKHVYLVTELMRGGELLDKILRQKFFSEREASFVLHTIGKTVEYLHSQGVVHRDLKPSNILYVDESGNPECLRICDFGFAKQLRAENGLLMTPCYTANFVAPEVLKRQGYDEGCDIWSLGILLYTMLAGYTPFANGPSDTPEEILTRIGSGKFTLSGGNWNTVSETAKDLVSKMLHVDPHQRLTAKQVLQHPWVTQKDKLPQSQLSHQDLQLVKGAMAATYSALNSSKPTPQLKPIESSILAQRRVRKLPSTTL
UniProt P51812, whole entry, species assumed: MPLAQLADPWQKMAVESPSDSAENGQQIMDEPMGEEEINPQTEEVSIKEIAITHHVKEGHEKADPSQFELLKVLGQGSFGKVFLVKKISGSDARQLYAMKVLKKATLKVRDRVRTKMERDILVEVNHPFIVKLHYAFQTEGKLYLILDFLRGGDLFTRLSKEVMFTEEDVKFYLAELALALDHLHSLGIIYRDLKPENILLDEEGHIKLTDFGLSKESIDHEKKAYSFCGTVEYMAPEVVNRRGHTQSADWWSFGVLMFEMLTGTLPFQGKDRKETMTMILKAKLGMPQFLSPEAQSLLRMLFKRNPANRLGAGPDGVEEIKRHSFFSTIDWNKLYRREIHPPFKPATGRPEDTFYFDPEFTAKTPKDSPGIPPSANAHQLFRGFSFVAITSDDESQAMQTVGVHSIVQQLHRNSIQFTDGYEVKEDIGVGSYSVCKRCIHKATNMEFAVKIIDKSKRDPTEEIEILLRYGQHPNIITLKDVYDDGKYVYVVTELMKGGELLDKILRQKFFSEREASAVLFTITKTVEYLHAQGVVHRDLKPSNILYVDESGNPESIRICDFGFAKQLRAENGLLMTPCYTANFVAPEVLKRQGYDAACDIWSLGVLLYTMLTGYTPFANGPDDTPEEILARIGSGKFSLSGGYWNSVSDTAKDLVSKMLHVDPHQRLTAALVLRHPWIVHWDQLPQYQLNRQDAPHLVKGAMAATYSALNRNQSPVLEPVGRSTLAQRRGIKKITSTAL

Tests used:
Assay type in all cases: biochemical
[1] = biological target: activated ERK2 (Homo sapiens (Human), UniProt P28482); test: Activated ERK2 kinase assay (AlphaScreen, ERKtide peptide phosphorylation)
Text: Production of Activated ERK2 Protein:
Activated ERK2 protein was generated in insect cells by co-expression with a constitutively active form of MEK1. The ERK2 protein was expressed and purified as a nHis-PreScission-ERK2 tagged protein and then proteolytically processed to the full-length wild-type protein. The resulting ERK2 protein was a mixture of phosphorylation states. Double-phosphorylated ERK2 protein was purified from the mixture by mono-Q column separation.
Activated ERK2 Kinase Assay:
Compound potency against activated ERK2 was determined using a kinase assay that measures ERK2-catalyzed phosphorylation of biotinylated ERKtide peptide substrate ([Biotin]-AH[…]- [NH2], the peptide sequence derived from EGF receptor: SEQ ID NO:1). The assay was carried out in 50 mM HEPES [pH 7.5], 5 mM MgCl2, 1 mM DTT, 0.01% Tween-20, 0.05% BSA using 0.25 nM ERK2, 200 nM ERKtide peptide and 35 μM ATP (all concentrations are final in the reaction) in a total volume of 10.25 μL. A 16-point, half-log dilution series of compounds at 41× final concentration was used for generating IC50 curves. Compound dilution series were prepared in 100% DMSO. ERK2 was preincubated with compounds for 30 minutes at ambient temperature. Reaction was initiated by addition of a substrate cocktail of ERKtide peptide and ATP and was allowed to proceed for 2-3 hours at ambient temperature. Reaction was terminated by addition of 10 μL of a 2× stop buffer consisting of 100 mM Tris-Cl [pH 7.5], 25 mM EDTA, 0.01% Tween 20, 10 μg/mL of AlphaScreen Protein A Acceptor Beads, 10 μg/mL of Streptavidin Donor Beads (PerkinElmer, Waltham, Mass.), and 1.4 μg/mL phospho-EGF Receptor (Thr669) antibody (Cat #3056, Cell Signaling Technology, Danvers, Mass.). Terminated reactions were read, after overnight incubation in the dark, on an EnVision Multilabel Plate Reader (PerkinElmer, Waltham, Mass.), with excitation and emission wavelengths set to 680 nm and 570 nm, respectively. IC50 values were determined using a four-parameter fit. Table 2 provides biological test data for the compounds of Table 1 produced using this assay method.

[2] = biological target: RSK1 (Homo sapiens (Human), UniProt Q15418); test: In vitro inhibition of RSK1; settings: in vitro activity on RSK1
Procedure: (§1) The following Table 3 lists compounds that were tested for inhibition of RSK; the IC50 values are in micromolar units, and refer to inhibition of RSK1 and RSK2, respectively. Where multiple measurements were made, each value is reported.

[3] = biological target: RSK2 (Homo sapiens (Human), UniProt P51812); test: In vitro inhibition of RSK2; settings: in vitro activity on RSK2; where multiple measurements were made, each value is reported
Procedure: as §1

[4] = 0.25 nM ERK2, 200 nM ERKtide peptide, 35 μM ATP, 30 min preincubation, read-out: ERK2 IC50

Compound | IC50 [1, 4] [nM] | IC50 [2] [nM] | IC50 [3] [nM] | IC50 ([1]; comparative example text, read-out: IC50 on ERK2) [nM]
CN(C)C[C@@H](NC(=O)N1Cc2nc(Nc3ccccc3)ncc2C1(C)C)c1ccccc1 [compound 148, (S)-N-(2-(dimethylamino)-1-phenylethyl)-5,5-dimethyl-2-(phenylamino)-5H-pyrrolo[3,4-d]pyrimidine-6(7H)-carboxamide] | 448 | 94 | – | –
C[C@H](CN(C)C)NC(=O)N1Cc2nc(Nc3ccccc3)ncc2C1(C)C [compound 150, (R)-N-(1-(dimethylamino)propan-2-yl)-5,5-dimethyl-2-(phenylamino)-5H-pyrrolo[3,4-d]pyrimidine-6(7H)-carboxamide] | – | – | 906 | –
CC(CN(C)C)NC(=O)N1Cc2nc(Nc3ccccc3)ncc2C1(C)C (centres unmarked) [compound 152, N-(1-(dimethylamino)propan-2-yl)-5,5-dimethyl-2-(phenylamino)-5H-pyrrolo[3,4-d]pyrimidine-6(7H)-carboxamide] | 29100 | 1230 | 1360 | –
C[C@@H](NC(=O)N1Cc2nc(Nc3ccccc3)ncc2C1(C)C)c1ccccc1 [compound 156, (R)-5,5-dimethyl-2-(phenylamino)-N-(1-phenylethyl)-5H-pyrrolo[3,4-d]pyrimidine-6(7H)-carboxamide] | 117 | 3600 | – | –
C[C@@H](CN(C)C)NC(=O)N1Cc2nc(Nc3ccccc3)ncc2C1(C)C [compound 167, (S)-N-(1-(dimethylamino)propan-2-yl)-5,5-dimethyl-2-(phenylamino)-5H-pyrrolo[3,4-d]pyrimidine-6(7H)-carboxamide] | – | – | 17500 | –
CN(C)C[C@H](NC(=O)N1Cc2nc(Nc3ccccc3)ncc2C1(C)C)c1ccccc1 [compound 168, (R)-N-(2-(dimethylamino)-1-phenylethyl)-5,5-dimethyl-2-(phenylamino)-5H-pyrrolo[3,4-d]pyrimidine-6(7H)-carboxamide] | – | 17700 | 20200 | –
C[C@H](NC(=O)N1Cc2nc(Nc3ccccc3)ncc2C1(C)C)c1ccccc1 [compound 169, (S)-5,5-dimethyl-2-(phenylamino)-N-(1-phenylethyl)-5H-pyrrolo[3,4-d]pyrimidine-6(7H)-carboxamide] | 35300 | – | – | –
CC1c2cnc(NC3CCOCC3)nc2CN1C(=O)N[C@H](C)c1cccc(Cl)c1 (stereo partly drawn) [compound 170, N-((R)-1-(3-chlorophenyl)ethyl)-5-methyl-2-((tetrahydro-2H-pyran-4-yl)amino)-5H-pyrrolo[3,4-d]pyrimidine-6(7H)-carboxamide] | 1.54 | – | – | 1.5

Read-outs that look alike come from different tables or passages of the source.
